Only a part is listed here, and it is no random draw. Calls of active or inactive are those of the source. Calls come from the whole dose curve; as a rule, active = well fitted inhibition curve with a large enough effect; inconclusive = small, poorly fitted or top-dose-only effect; inactive = flat fitted curve, though single readings scatter.
Target: ATP-dependent DNA helicase Q1 (Homo sapiens) (UniProt P46063)
Test: qHTS Assay for Inhibitors of RecQ-Like Dna Helicase 1 (RECQ1); note: nearly all actives have a fitted effect of over 30% in size;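 for activity, negative = inhibition: plate controls were vehicle for no effect and no enzyme for full effect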
Settings: RECQ1 DNA unwinding, red fluorescence kinetic read; series mostly up to 57.3 µM; activity, negative = inhibition: at the top concentration
Method in brief: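 RECQ1T1 50 nM; forked duplex (20 bp + 30-nt ss tails) 200 nM, ATP 2 mM final; pH 8.0, 2 mM MgCl2, 2.5 ug/ml poly(dI-dC); 15 min compound preincubation; discontinuous kinetic read over 2 h at RT.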
Potency is the fitted concentration of half-maximal effect.

Protein sequences, listed by entry. Tags and fused reporters are not part of them. Lines headed by an entry give the natural chain unless they say otherwise; changes in a name come on top.
UniProt P46063: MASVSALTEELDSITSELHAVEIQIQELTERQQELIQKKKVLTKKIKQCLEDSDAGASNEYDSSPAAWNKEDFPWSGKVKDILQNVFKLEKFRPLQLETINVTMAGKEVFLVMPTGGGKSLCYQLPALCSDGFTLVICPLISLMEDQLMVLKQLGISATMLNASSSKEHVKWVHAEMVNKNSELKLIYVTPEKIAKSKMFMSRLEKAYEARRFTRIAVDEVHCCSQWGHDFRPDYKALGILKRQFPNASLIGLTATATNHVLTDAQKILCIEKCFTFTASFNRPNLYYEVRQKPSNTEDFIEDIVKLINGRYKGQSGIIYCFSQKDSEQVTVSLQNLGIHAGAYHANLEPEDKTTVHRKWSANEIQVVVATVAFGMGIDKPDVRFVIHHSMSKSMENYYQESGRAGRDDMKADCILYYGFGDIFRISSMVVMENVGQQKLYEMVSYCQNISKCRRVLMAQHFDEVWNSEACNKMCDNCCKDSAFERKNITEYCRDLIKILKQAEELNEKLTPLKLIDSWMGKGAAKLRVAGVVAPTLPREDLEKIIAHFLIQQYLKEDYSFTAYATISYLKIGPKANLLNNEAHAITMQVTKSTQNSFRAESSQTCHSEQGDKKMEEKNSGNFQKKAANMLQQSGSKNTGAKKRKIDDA

SMILES | outcome | activity, negative = inhibition | Potency
CN(C)C1(CNC(=O)c2ccc(S(C)(=O)=O)cc2)CCCCC1 | inactive |  | 
O=C(/C=C/c1ccccc1)OC1CN2CCC1CC2 (stereo unspecified) |  | inactive: -2.75% | 
Cc1nn(-c2ccccc2)c2c1P(=O)(N1CCOCC1)N(C)C(c1ccccc1)=N2 (stereo unspecified) |  | inactive: -2.45% | 
CC1CCC(C(C)C)C(OP(=O)(Nc2ccccn2)c2ccccc2)C1 (stereo unspecified) |  | inactive: -9.25% | 
Nc1cccc([As](=O)(O)c2ccccc2)c1 |  | inactive: -0.551% | 
O=P1(Nc2ccc(Br)cn2)COc2ccccc2OC1 |  | inactive: -1.94% | 
Cc1ccc(OCC(=O)OC2CN3CCC2CC3)cc1 (stereo unspecified) |  | inactive: -2.21% | 
O=[As](O)(c1cccs1)c1cccs1 |  | inactive: -7.14% | 
O=P1(Nc2ncccn2)COc2ccccc2OC1 | inactive |  | 
O=C(O)COc1ccc([As](=O)(O)O)cc1[N+](=O)[O-] | inactive |  | 
Nc1ccccc1[As](=O)(O)c1ccccc1 |  | inactive: -3.81% | 
CCOP1(=S)c2c(C)nn(CCC#N)c2N=C(c2ccccc2F)N1C (stereo unspecified) |  | inactive: -11.3% | 
O=P(Nc1nccs1)(c1ccccc1)c1nc2ccccc2s1 (stereo unspecified) |  | inactive: -2.16% | 
O=P(Nc1nccs1)(Oc1ccccc1)Oc1ccccc1 |  | inactive: 3.68% | 
CS(=O)(=O)c1cc([N+](=O)[O-])c2no[n+]([O-])c2c1 |  | inactive: -6.98% | 
CCOP1(=S)c2c(C)nn(CCC#N)c2N=C(c2ccc(F)cc2)N1C (stereo unspecified) |  | inactive: -3.07% | 
CN(C(=O)Cc1ccccc1)[C@@H]1CC[C@]2(CCCO2)C[C@H]1N1CCCC1 |  |  | inactive
O=[N+]([O-])c1ccc2c(c1)nnn2O |  | inactive: -11% | 
NC(=O)Nc1ccc([As](=O)(O)O)cc1 |  |  | inactive
O=[N+]([O-])CC(O)c1ccc([N+](=O)[O-])cc1 (stereo unspecified) | inactive |  | 
O=[As](O)(c1cccc(O)c1)c1cccc(O)c1 |  | inactive: 11.9% | 
Cc1cccc(OCC(=O)OC2CN3CCC2CC3)c1 (stereo unspecified) | inactive |  | 
O=C(OC1CN2CCC1CC2)c1ccc(Cl)cc1 (stereo unspecified) |  | inactive: -5.51% | 
CN(C(=O)Cc1ccc(Cl)c(Cl)c1)[C@@H]1CC[C@]2(CCCO2)C[C@H]1N1CCCC1 |  |  | inactive
COc1cc(C(=O)NCC2(N3CCOCC3)CCCCC2)cc(Cl)c1OC(C)C |  | inactive: 2.69% | 
O=[As](O)(O)c1cccnc1 | inactive |  | 

SMILES | outcome | activity, negative = inhibition | Potency
COc1cc(C2NCCC3(OCCO3)C2(C)C)cc(OC)c1OC (stereo unspecified) | inactive |  | 
CCOP(=O)(Nc1cccc2ccccc12)OCC |  | inactive: -0.511% | 
Cc1ccc(NCCc2c([N+](=O)[O-])cc([N+](=O)[O-])cc2[N+](=O)[O-])cc1 |  | inactive: -16.2% | 
Nc1cccc2c([As](=O)(O)O)cccc12 |  | inactive: 5.52% | 
CCCOP(=S)(Nc1nc(N)cc(=O)[nH]1)OCCC | inactive |  | 
CC(C)(C)C(=O)NC(Sc1ccccc1)C(Cl)(Cl)Cl (stereo unspecified) | inactive |  | 
O=P1(Nc2nc3ccc(Cl)cc3s2)COc2ccccc2O1 (stereo unspecified) |  | inactive: -6.4% | 
CCOc1ccc(C2=NCC(CBr)S2)cc1 (stereo unspecified) | inactive |  | 
CC(=O)Nc1ccc([As](=O)(O)O)c(O)c1 |  | inactive: -1.7% | 
CC(=O)Nc1ccc(Oc2c([N+](=O)[O-])cc([N+](=O)[O-])cc2[N+](=O)[O-])cc1 |  | inactive: 0.631% | 
C[C@@H]1C=CCP(=O)(Oc2ccccc2)O1 (stereo partly specified) |  |  | active: 15.8 µM
C[C@H]1OP(=O)(Oc2ccccc2)C[C@@H]2O[C@@H]21 (stereo partly specified) |  | inactive: -0.109% | 
c1ccc(-c2nn[nH]n2)c(-c2nn[nH]n2)c1 |  | inactive: -5.19% | 
Cc1ccc(NP(=O)(Oc2cccc(C)c2)Oc2cccc(C)c2)nc1 |  | inactive: -11.7% | 
CCOC(=O)NC(Sc1ccccc1)C(Cl)(Cl)Cl (stereo unspecified) |  | inactive: -13.5% | 
O=C(NC1CCS(=O)(=O)C1)NP(=S)(Oc1ccccc1)Oc1ccccc1 (stereo unspecified) |  | inactive: -4.63% | 
CCNC(=S)/N=C(\N)N[N+](=O)[O-] | inactive |  | 
Cc1ccccc1OP(=O)(Nc1ccccn1)Oc1ccccc1C |  | inactive: -5.28% | 
CN(C)C(=O)Oc1noc2ccccc12 |  | inactive: -7.74% | 
O=c1c2cc([N+](=O)[O-])ccc2[nH]c2c([N+](=O)[O-])cc([N+](=O)[O-])cc12 |  | inactive: -18.5% | 
CN(C(=O)Cc1ccc(Cl)c(Cl)c1)[C@@H]1CCCC[C@@H]1N1CCCC1 |  | inactive: -8.67% | 
CCC(=O)N1C2C3N(C(=O)CC)C1C1N(C(=O)CC)C(C(N1C(=O)CC)N3C(=O)CC)N2C(=O)CC |  | inactive: -3.02% | 
COC(=O)c1cc2c(s1)N=C(c1ccccc1)N(C)P2(=O)N1CCOCC1 (stereo unspecified) |  | inactive: -12.1% | 
CC(=O)NC(SC(=S)N(CC(C)C)CC(C)C)C(Cl)(Cl)Cl (stereo unspecified) |  | inactive: -7.56% | 
Cc1ccc(OP(=O)(Nc2ccccn2)Oc2ccc(C)cc2)cc1 |  | inactive: -4.52% | 
Cc1cc([N+](=O)[O-])cc([N+](=O)[O-])c1O |  | inactive: -4.11% | 

SMILES | outcome | activity, negative = inhibition | Potency
CN(C(=O)Cc1ccccc1)[C@H]1CC[C@@]2(CCCO2)C[C@@H]1N1CCCC1 |  | inactive: -1.62% | 
O=P(Nc1nc2ccccc2s1)(c1ccccc1)c1ccccc1 |  | inactive: 17.7% | 
C[C@H]1OP(=O)(Oc2ccccc2)[C@H](O)[C@H](O)[C@H]1N=[N+]=[N-] (stereo partly specified) |  | inactive: 5.26% | 
O=P(Nc1ccccn1)(c1ccc(Br)cc1)c1ccc(Br)cc1 | inactive |  | 
O=C(OC1CN2CCC1CC2)c1cccc(Cl)c1 (stereo unspecified) |  | inactive: -9.14% | 
Nc1ccc([As](=O)(O)c2ccc([N+](=O)[O-])cc2)cc1 | inactive |  | 
C(Cc1nn[nH]n1)Cc1nn[nH]n1 | inactive |  | 
O=[As](O)(c1ccccc1)c1ccc(O)cc1 |  | inactive: -2.09% | 
CC(=O)NC(SC(=S)N(C)C)C(Cl)(Cl)Cl (stereo unspecified) |  | inactive: -0.882% | 
O=[N+]([O-])c1ncn(CCn2cnc([N+](=O)[O-])n2)n1 |  | inactive: -1.73% | 
c1nnnn1CCn1cnnn1 |  | inactive: -10.8% | 
CCC(C)(OOC(C)(C)C)OOC(C)(C)C |  | inactive: -10.1% | 
O=P(Nc1nccs1)(c1ccccc1)c1ccccc1 |  | inactive: 5.13% | 
CC(C)C(=O)NC(Sc1ccccc1)C(Cl)(Cl)Cl (stereo unspecified) |  | inactive: -3.55% | 
Cc1ccc(NP(=O)(Oc2ccccc2)Oc2ccccc2)nc1 |  | inactive: -8% | 
O=[N+]([O-])c1cc([N+](=O)[O-])c(CCNc2ccccc2)c([N+](=O)[O-])c1 |  | inactive: -25.4% | 
CCc1nc2c(n1)c1c(non1O)c1c2no[n+]1[O-] |  | inactive: -6.42% | 
CC(=O)N1C2C3N(C(C)=O)C1C1N(C(C)=O)C(C(N1C(C)=O)N3C(C)=O)N2C(C)=O |  | inactive: 0.355% | 
O=[N+]([O-])c1cccc2n[nH]nc12 | inactive |  | 
COc1ccc(C2=NCC(CBr)S2)cc1 (stereo unspecified) |  | inactive: -3.38% | 
CC1CCN(C(=O)Oc2c(Cl)cc(Cl)c3cccnc23)CC1 |  | inactive: -0.806% | 
CC(=O)C1=CCCC2CCC1N2 (stereo unspecified) |  |  | inactive
CC(C)=N/N=C(\N)N[N+](=O)[O-] | inactive |  | 
CN(C)C(=O)OCCc1n(C)cc[n+]1C |  | inactive: 1.71% | 

— PubChem BioAssay AID2549 (National Center for Advancing Translational Sciences (NCATS), 2010)
